We go through one compound from US8568699B2, “Soft anticholinergic zwitterions” (priority 2005, dated 2013).

Protein sequences, listed by entry. Tags and fused reporters are not part of them. Residues count along the entry.
UniProt H0W1Z3, 1-590: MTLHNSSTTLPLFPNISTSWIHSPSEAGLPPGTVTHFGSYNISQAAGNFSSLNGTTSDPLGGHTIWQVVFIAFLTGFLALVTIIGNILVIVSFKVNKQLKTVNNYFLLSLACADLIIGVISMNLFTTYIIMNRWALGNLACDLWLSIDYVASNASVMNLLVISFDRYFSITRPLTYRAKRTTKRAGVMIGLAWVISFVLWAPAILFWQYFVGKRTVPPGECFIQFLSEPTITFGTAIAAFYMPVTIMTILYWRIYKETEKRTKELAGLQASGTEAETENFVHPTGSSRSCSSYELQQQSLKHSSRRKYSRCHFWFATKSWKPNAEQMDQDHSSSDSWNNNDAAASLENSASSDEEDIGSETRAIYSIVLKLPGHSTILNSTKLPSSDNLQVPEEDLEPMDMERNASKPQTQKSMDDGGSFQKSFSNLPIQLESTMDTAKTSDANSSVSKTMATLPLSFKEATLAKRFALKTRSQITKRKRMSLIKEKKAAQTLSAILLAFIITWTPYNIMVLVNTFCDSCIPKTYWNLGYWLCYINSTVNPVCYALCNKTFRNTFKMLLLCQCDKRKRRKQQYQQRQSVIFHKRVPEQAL

This experiment concerns the target M3 muscarinic receptors (guinea pig ileum) (Cavia porcellus, UniProt H0W1Z3). The experiment can be described thus: cell-based.

Each structure is given as a SMILES string.

In turn, `C[N+]1(C)CCC(OC(=O)C(O)(c2ccccc2)C2CCCC2)C1` (mixture of isomers) [glycopyrrolate, glycopyrronium bromide] showed a Kb of 2.69 nM.
